Results from paper PMC9569420 (Communications Biology, 2022).
Values joined by “and” are separate entries in the source; they are usually repeats but may differ in a detail not shown here. Equal entries are not always repeated.

Protein sequences, listed by entry. Tags and fused reporters are not part of them. Lines headed by an entry give the natural chain unless they say otherwise; changes in a name come on top. Residues count along the entry.
UniProt P11802: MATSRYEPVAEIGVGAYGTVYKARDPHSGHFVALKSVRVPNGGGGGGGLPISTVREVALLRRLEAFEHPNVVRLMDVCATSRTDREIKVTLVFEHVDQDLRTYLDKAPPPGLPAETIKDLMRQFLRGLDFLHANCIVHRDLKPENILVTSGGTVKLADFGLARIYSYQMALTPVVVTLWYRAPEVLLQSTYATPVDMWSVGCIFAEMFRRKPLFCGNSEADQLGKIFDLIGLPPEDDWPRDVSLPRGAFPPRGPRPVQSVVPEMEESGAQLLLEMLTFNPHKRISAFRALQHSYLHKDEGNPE
UniProt P49674: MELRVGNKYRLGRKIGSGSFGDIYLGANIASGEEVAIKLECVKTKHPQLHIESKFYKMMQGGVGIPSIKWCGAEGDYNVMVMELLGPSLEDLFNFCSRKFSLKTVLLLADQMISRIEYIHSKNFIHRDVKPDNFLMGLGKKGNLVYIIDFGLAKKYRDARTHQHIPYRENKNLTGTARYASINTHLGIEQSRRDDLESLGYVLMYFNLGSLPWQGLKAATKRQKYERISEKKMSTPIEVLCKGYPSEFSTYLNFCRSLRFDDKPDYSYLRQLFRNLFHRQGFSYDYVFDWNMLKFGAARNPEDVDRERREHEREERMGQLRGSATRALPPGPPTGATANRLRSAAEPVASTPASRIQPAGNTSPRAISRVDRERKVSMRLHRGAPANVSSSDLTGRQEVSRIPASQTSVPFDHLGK
UniProt P78368: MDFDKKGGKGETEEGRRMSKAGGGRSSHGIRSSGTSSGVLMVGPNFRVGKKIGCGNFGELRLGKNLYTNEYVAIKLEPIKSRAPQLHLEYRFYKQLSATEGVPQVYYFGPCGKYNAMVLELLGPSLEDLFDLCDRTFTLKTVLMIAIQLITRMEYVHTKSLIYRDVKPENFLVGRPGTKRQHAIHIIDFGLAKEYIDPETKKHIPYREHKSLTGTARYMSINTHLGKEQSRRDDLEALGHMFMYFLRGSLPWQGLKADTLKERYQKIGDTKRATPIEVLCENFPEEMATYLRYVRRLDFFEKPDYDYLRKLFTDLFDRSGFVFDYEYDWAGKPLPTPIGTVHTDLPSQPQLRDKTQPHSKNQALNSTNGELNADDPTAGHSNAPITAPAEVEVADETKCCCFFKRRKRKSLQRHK
UniProt P49761: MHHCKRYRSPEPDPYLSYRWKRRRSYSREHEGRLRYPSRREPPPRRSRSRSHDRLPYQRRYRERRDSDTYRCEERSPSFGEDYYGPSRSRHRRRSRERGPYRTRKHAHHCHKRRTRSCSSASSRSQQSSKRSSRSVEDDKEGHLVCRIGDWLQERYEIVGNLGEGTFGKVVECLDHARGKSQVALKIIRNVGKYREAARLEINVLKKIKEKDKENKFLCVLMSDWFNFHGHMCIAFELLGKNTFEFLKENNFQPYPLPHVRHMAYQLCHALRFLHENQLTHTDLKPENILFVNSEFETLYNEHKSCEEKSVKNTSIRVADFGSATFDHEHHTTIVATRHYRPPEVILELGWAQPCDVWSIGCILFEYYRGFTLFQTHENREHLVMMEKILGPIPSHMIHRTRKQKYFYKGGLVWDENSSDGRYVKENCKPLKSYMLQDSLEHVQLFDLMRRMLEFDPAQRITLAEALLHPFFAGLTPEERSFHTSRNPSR
UniProt P29317, 24-976: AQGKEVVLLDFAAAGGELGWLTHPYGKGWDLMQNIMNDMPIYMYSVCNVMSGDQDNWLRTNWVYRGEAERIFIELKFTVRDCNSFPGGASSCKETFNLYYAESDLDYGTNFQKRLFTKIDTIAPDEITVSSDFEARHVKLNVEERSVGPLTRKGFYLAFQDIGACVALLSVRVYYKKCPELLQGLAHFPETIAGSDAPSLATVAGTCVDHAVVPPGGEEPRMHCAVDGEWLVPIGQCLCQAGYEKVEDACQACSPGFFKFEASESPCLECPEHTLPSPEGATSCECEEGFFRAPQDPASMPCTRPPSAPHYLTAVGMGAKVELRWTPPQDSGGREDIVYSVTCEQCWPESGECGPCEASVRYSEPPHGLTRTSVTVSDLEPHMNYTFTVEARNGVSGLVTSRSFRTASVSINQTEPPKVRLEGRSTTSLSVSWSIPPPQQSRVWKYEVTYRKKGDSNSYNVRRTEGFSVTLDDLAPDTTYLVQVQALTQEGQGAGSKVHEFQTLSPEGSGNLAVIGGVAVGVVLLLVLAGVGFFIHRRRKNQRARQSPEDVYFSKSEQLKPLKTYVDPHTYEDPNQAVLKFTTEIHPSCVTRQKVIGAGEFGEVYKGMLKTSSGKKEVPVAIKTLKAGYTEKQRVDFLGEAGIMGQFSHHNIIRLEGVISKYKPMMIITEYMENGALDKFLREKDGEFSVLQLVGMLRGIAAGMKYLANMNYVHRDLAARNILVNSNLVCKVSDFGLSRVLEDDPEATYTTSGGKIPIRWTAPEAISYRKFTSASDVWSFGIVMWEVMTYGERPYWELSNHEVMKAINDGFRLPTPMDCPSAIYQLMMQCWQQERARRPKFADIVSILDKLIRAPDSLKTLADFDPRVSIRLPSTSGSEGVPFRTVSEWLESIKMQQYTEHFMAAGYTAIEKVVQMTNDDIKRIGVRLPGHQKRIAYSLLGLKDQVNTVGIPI
UniProt P08631: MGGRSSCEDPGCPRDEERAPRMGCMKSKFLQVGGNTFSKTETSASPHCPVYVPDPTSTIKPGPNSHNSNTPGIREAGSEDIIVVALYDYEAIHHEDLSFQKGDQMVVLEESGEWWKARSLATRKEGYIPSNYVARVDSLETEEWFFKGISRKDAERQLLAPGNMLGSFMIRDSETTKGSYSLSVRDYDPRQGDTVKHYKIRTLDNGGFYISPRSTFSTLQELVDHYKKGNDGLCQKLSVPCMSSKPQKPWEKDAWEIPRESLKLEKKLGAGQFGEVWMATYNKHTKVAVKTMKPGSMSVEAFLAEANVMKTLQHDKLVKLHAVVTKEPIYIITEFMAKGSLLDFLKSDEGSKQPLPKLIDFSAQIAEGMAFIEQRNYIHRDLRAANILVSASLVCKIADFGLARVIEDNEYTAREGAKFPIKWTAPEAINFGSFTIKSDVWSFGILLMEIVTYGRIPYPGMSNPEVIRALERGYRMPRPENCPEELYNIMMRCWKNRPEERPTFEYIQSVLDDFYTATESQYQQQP
UniProt Q8IVT5: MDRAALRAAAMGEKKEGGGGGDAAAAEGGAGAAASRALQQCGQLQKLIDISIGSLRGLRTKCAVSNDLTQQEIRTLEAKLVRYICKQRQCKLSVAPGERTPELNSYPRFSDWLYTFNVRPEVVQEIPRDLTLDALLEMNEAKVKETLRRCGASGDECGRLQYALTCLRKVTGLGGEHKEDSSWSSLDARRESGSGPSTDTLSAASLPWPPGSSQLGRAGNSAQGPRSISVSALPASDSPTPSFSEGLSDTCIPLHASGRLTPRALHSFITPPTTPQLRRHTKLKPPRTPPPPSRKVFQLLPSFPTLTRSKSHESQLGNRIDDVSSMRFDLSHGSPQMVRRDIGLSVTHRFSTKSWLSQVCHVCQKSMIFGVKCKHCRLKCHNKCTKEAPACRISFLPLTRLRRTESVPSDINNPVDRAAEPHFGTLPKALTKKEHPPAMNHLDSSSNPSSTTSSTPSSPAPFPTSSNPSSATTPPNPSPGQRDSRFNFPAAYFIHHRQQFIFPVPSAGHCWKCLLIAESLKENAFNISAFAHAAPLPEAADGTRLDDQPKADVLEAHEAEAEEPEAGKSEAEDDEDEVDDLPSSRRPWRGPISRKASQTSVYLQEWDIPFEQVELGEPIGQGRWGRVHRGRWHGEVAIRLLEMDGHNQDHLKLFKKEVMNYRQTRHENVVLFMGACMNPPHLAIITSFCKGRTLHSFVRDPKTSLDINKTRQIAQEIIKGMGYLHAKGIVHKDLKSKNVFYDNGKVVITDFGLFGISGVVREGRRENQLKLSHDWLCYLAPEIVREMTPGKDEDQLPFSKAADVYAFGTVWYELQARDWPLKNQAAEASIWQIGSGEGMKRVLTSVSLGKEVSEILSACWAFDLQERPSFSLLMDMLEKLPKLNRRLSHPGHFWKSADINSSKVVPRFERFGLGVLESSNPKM
UniProt Q9P0L2: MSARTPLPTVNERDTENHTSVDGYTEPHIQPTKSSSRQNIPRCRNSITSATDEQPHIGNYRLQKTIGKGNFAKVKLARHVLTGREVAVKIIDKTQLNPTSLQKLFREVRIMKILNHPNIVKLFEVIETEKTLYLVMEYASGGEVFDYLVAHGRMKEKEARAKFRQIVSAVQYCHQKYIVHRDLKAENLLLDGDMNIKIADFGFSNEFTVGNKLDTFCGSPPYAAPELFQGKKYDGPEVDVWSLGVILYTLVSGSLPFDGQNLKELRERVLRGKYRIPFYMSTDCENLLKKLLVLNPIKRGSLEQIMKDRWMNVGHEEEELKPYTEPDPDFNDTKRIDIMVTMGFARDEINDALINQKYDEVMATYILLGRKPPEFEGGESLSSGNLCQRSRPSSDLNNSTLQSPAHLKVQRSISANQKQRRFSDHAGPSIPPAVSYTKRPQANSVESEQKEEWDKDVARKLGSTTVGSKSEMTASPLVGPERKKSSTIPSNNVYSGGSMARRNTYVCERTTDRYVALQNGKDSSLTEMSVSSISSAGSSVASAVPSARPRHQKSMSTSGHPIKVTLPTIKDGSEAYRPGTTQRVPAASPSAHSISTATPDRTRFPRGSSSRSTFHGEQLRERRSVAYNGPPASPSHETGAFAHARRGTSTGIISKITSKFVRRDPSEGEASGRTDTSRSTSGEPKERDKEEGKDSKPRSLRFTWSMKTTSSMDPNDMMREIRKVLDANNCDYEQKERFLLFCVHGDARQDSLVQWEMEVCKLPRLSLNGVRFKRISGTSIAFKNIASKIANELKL
UniProt P51955: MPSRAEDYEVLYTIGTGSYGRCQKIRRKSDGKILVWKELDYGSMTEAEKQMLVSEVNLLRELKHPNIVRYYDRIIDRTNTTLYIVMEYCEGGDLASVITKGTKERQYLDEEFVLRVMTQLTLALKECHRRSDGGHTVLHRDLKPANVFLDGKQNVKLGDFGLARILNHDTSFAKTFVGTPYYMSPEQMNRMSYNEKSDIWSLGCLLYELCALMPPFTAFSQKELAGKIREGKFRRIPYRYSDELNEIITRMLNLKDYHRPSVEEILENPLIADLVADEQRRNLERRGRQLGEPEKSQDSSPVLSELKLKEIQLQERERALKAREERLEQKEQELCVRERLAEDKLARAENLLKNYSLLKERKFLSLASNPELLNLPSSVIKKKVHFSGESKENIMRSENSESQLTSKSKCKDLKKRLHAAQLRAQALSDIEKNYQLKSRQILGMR
UniProt Q9P1W9: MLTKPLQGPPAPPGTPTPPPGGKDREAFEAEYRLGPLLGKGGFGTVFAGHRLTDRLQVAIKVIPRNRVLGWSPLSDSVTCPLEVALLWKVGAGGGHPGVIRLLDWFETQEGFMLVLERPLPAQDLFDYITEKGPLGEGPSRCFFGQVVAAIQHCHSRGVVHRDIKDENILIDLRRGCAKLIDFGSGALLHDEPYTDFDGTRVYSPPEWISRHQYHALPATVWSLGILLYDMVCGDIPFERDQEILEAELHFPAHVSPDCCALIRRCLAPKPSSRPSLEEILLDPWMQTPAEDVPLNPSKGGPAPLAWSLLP
UniProt Q15208: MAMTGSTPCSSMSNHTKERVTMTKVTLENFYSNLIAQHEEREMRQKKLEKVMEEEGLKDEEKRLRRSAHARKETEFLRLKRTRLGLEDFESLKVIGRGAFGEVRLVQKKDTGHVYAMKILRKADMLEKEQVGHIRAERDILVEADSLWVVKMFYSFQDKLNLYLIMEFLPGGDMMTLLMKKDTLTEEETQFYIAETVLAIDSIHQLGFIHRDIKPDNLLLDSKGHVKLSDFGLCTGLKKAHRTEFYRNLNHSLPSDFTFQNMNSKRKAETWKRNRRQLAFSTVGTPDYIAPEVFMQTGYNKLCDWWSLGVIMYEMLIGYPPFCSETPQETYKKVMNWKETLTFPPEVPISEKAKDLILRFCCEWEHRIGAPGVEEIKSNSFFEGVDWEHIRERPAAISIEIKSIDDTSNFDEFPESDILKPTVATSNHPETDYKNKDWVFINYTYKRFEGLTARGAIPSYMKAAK

Columns and labels:
Format in all cases: biochemical
Details in all cases: 10µM
BRSK1 = target: T1, BRSK1 (Homo sapiens, UniProt Q8TDC3); assay: HotSpot kinase assay
T1 construct: purchased Reaction Biology Corporation

c-Kit = target: T2, c-Kit (Homo sapiens, UniProt P10721); assay: HotSpot kinase assay
T2 construct: purchased Reaction Biology Corporation

CAMK2b = target: T3, CAMK2b (Homo sapiens, UniProt Q13554); assay: HotSpot kinase assay
T3 construct: purchased Reaction Biology Corporation

CDK17/cyclin Y (PCTK2) = target: T4, CDK17/cyclin Y (PCTK2) (Homo sapiens, UniProt Q00537); assay: HotSpot kinase assay
T4 construct: purchased Reaction Biology Corporation

CDK2/cyclin O = target: T5, CDK2/cyclin O (Homo sapiens, UniProt P24941); assay: HotSpot kinase assay
T5 construct: purchased Reaction Biology Corporation

CDK4/cyclin D1 = target: T6, CDK4/cyclin D1 (Homo sapiens, UniProt P11802); assay: HotSpot kinase assay
T6 construct: purchased Reaction Biology Corporation

CHK1 = target: T7, CHK1 (Homo sapiens, UniProt O14757); assay: HotSpot kinase assay
T7 construct: purchased Reaction Biology Corporation

CK1epsilon = target: T8, CK1epsilon (Homo sapiens, UniProt P49674); assay: HotSpot kinase assay
T8 construct: purchased Reaction Biology Corporation

CK1g2 = target: T9, CK1g2 (Homo sapiens, UniProt P78368); assay: HotSpot kinase assay
T9 construct: purchased Reaction Biology Corporation

CLK3 = target: T10, CLK3 (Homo sapiens, UniProt P49761); assay: HotSpot kinase assay
T10 construct: purchased Reaction Biology Corporation

EPHA2 = target: T11, EPHA2 (Homo sapiens, UniProt P29317); assay: HotSpot kinase assay
T11 construct: purchased Reaction Biology Corporation

EPHB1 = target: T12, EPHB1 (Homo sapiens, UniProt P54762); assay: HotSpot kinase assay
T12 construct: purchased Reaction Biology Corporation

ERBB2/HER2 = target: T13, ERBB2/HER2 (Homo sapiens, UniProt P04626)
T13 construct: purchased Reaction Biology Corporation

ERN2/IRE2 = target: T14, ERN2/IRE2 (Homo sapiens, UniProt Q76MJ5); assay: HotSpot kinase assay
T14 construct: purchased Reaction Biology Corporation

GRK1 = target: T15, GRK1 (Homo sapiens, UniProt Q15835); assay: HotSpot kinase assay
T15 construct: purchased Reaction Biology Corporation

GRK2 = target: T16, GRK2 (Homo sapiens, UniProt P25098)
T16 construct: purchased Reaction Biology Corporation

HCK = target: T17, HCK (Homo sapiens, UniProt P08631); assay: HotSpot kinase assay
T17 construct: purchased Reaction Biology Corporation

HIPK1 = target: T18, HIPK1 (Homo sapiens, UniProt Q86Z02); assay: HotSpot kinase assay
T18 construct: purchased Reaction Biology Corporation

HIPK2 = target: T19, HIPK2 (Homo sapiens, UniProt Q9H2X6); assay: HotSpot kinase assay
T19 construct: purchased Reaction Biology Corporation

JAK3 = target: T20, JAK3 (Homo sapiens, UniProt P52333); assay: HotSpot kinase assay
T20 construct: purchased Reaction Biology Corporation

KDR/VEGFR2 = target: T21, KDR/VEGFR2 (Homo sapiens, UniProt P35968); assay: HotSpot kinase assay
T21 construct: purchased Reaction Biology Corporation

KSR1 = target: T22, KSR1 (Homo sapiens, UniProt Q8IVT5)
T22 construct: purchased Reaction Biology Corporation

KSR2 = target: T23, KSR2 (Homo sapiens, UniProt Q6VAB6)
T23 construct: purchased Reaction Biology Corporation

MARK1 = target: T24, MARK1 (Homo sapiens, UniProt Q9P0L2); assay: HotSpot kinase assay
T24 construct: purchased Reaction Biology Corporation

MEK1 = target: T25, MEK1 (Homo sapiens, UniProt Q02750); assay: HotSpot kinase assay
T25 construct: purchased Reaction Biology Corporation

MEK5 = target: T26, MEK5 (Homo sapiens, UniProt Q13163); assay: HotSpot kinase assay
T26 construct: purchased Reaction Biology Corporation

MSK1/RPS6KA5 = target: T27, MSK1/RPS6KA5 (Homo sapiens, UniProt O75582); assay: HotSpot kinase assay
T27 construct: purchased Reaction Biology Corporation

NEK2 = target: T28, NEK2 (Homo sapiens, UniProt P51955); assay: HotSpot kinase assay
T28 construct: purchased Reaction Biology Corporation

NEK4 = target: T29, NEK4 (Homo sapiens, UniProt P51957); assay: HotSpot kinase assay
T29 construct: purchased Reaction Biology Corporation

NEK5 = target: T30, NEK5 (Homo sapiens, UniProt Q6P3R8); assay: HotSpot kinase assay
T30 construct: purchased Reaction Biology Corporation

PDK1/PDPK1 = target: T31, PDK1/PDPK1 (Homo sapiens, UniProt O15530)
T31 construct: purchased Reaction Biology Corporation

PIM2 = target: T32, PIM2 (Homo sapiens, UniProt Q9P1W9); assay: HotSpot kinase assay
T32 construct: purchased Reaction Biology Corporation

PIM3 = target: T33, PIM3 (Homo sapiens, UniProt Q86V86); assay: HotSpot kinase assay
T33 construct: purchased Reaction Biology Corporation

PLK1 = target: T34, PLK1 (Homo sapiens, UniProt P53350); assay: HotSpot kinase assay
T34 construct: purchased Reaction Biology Corporation

ROCK1 = target: T35, ROCK1 (Homo sapiens, UniProt Q13464); assay: HotSpot kinase assay
T35 construct: purchased Reaction Biology Corporation

SRPK2 = target: T36, SRPK2 (Homo sapiens, UniProt P78362); assay: HotSpot kinase assay
T36 construct: purchased Reaction Biology Corporation

STK38/NDR1 = target: T37, STK38/NDR1 (Homo sapiens, UniProt Q15208); assay: HotSpot kinase assay
T37 construct: purchased Reaction Biology Corporation

STK38L/NDR2 = target: T38, STK38L/NDR2 (Homo sapiens, UniProt Q9Y2H1); assay: HotSpot kinase assay
T38 construct: purchased Reaction Biology Corporation

TRKA = target: T39, TRKA (Homo sapiens, UniProt P04629); assay: HotSpot kinase assay
T39 construct: purchased Reaction Biology Corporation

Compound: CO[C@@H]1[C@H](N(C)C(=O)CCC(=O)NCc2cn(CCCS(=O)(=O)O)nn2)C[C@H]2O[C@]1(C)n1c3ccccc3c3c4c(c5c6ccccc6n2c5c31)C(=O)NC4 [CIMSS]
- % Enzyme Activity (relative to DMSO controls) (BRSK1): 1.28%
- % Enzyme Activity (relative to DMSO controls) (c-Kit): 0.28% and -0.14%
- % Enzyme Activity (relative to DMSO controls) (CAMK2b): 2.90%
- % Enzyme Activity (relative to DMSO controls) (CDK17/cyclin Y (PCTK2)): 52.31%
- % Enzyme Activity (relative to DMSO controls) (CDK2/cyclin O): 4.80%
- % Enzyme Activity (relative to DMSO controls) (CDK4/cyclin D1): 68.11%
- % Enzyme Activity (relative to DMSO controls) (CHK1): 4.46%
- % Enzyme Activity (relative to DMSO controls) (CK1epsilon): 38.79%
- % Enzyme Activity (relative to DMSO controls) (CK1g2): 93.32%
- % Enzyme Activity (relative to DMSO controls) (CLK3): 34.93%
- % Enzyme Activity (relative to DMSO controls) (EPHA2): 31.99%
- % Enzyme Activity (relative to DMSO controls) (EPHB1): 1.62%
- % Enzyme Activity (relative to DMSO controls) (ERBB2/HER2): 34.05%
- % Enzyme Activity (relative to DMSO controls) (ERN2/IRE2): 5.93%
- % Enzyme Activity (relative to DMSO controls) (GRK1): 4.55%
- % Enzyme Activity (relative to DMSO controls) (GRK2): 28.58%
- % Enzyme Activity (relative to DMSO controls) (HCK): 6.46%
- % Enzyme Activity (relative to DMSO controls) (HIPK1): 33.68%
- % Enzyme Activity (relative to DMSO controls) (HIPK2): 17.11%
- % Enzyme Activity (relative to DMSO controls) (JAK3): 0.84%
- % Enzyme Activity (relative to DMSO controls) (KDR/VEGFR2): 6.16%
- % Enzyme Activity (relative to DMSO controls) (KSR1): 86.36%
- % Enzyme Activity (relative to DMSO controls) (KSR2): 107.01%
- % Enzyme Activity (relative to DMSO controls) (MARK1): 1.16%
- % Enzyme Activity (relative to DMSO controls) (MEK1): 75.35%
- % Enzyme Activity (relative to DMSO controls) (MEK5): 40.06%
- % Enzyme Activity (relative to DMSO controls) (MSK1/RPS6KA5): 1.49%
- % Enzyme Activity (relative to DMSO controls) (NEK2): 18.42%
- % Enzyme Activity (relative to DMSO controls) (NEK4): 5.73%
- % Enzyme Activity (relative to DMSO controls) (NEK5): 6.22%
- % Enzyme Activity (relative to DMSO controls) (PDK1/PDPK1): 4.20%
- % Enzyme Activity (relative to DMSO controls) (PIM2): 20.94%
- % Enzyme Activity (relative to DMSO controls) (PIM3): 2.18%
- % Enzyme Activity (relative to DMSO controls) (PLK1): 17.05%
- % Enzyme Activity (relative to DMSO controls) (ROCK1): 25.74%
- % Enzyme Activity (relative to DMSO controls) (SRPK2): 7.62%
- % Enzyme Activity (relative to DMSO controls) (STK38/NDR1): 9.08%
- % Enzyme Activity (relative to DMSO controls) (STK38L/NDR2): 22.41%
- % Enzyme Activity (relative to DMSO controls) (TRKA): -2.22% and -3.31%
